Membrane permeability of cyclic peptides

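The data file gives no further conditions (lipid, pH, time, direction or concentration), and values from different papers need not be comparable. The list need not hold all peptides of the study. Peptides that the database sets to -10, its floor, are left out.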

PAMPA measures passive passage through an artificial lipid membrane.
P is given in units of 10^-6 cm/s (from log10 values with two decimals); larger means faster passage.

structure (SMILES) | PAMPA (10^-6 cm/s)
CCCN1CC(=O)N[C@H](CC(C)C)C(=O)N[C@@H](Cc2ccccc2)CC(=O)N2CCC[C@@H]2C(=O)N(C)[C@H](CC(C)C)C(=O)N[C@@H](Cc2ccccc2)C(=O)N2CCC[C@H]2C1=O | 1.5
CC(C)C[C@H]1NC(=O)[C@H](CC(C)C)N(C)C(=O)[C@@H](C)NC(=O)[C@@H]2CCCN2C(=O)[C@H](Cc2ccccc2)NC(=O)[C@H](CC(C)C)N(C)C(=O)[C@H]2CCCN2C1=O | 2.2
CCCN1CC(=O)N[C@@H](CC(C)C)C(=O)N(C)[C@@H](CC(C)C)C(=O)N2CCC[C@H]2C(=O)N(C)[C@@H](CC(C)C)C(=O)N[C@@H](Cc2ccccc2)C(=O)N2CCC[C@@H]2C1=O | 9.5
CC(C)C[C@H]1C(=O)N(C)[C@@H](CC(C)C)C(=O)N2CCC[C@@H]2C(=O)N(Cc2ccccc2)CC(=O)N[C@@H](Cc2ccccc2)C(=O)N[C@H](C)C(=O)N1C | 4.3
CC(C)C[C@H]1NC(=O)[C@@H](C)N(C)C(=O)[C@H]2CCCN2C(=O)[C@H](Cc2ccccc2)NC(=O)CN(Cc2ccccc2)C(=O)[C@@H]2CCCN2C(=O)C[C@H](Cc2ccccc2)NC1=O | 0.59
CC(C)C[C@@H]1NC(=O)[C@@H]2CCCN2C(=O)[C@@H](CC(C)C)NC(=O)[C@@H](CC(C)C)N(C)C(=O)C[C@H](Cc2ccccc2)NC(=O)[C@H]2CCCN2C(=O)[C@H](Cc2ccccc2)NC1=O | 1.9
CCCN1CC(=O)N(C)[C@H](CC(C)C)C(=O)N[C@@H](CC(C)C)C(=O)N2CCC[C@@H]2C(=O)N(C)[C@@H](CC(C)C)C(=O)N[C@@H](Cc2ccccc2)C(=O)N2CCC[C@@H]2C1=O | 10
CC(C)C[C@@H]1NC(=O)[C@H]2CCCN2C(=O)C[C@H](Cc2ccccc2)NC(=O)[C@@H](CC(C)C)NC(=O)C[C@H](Cc2ccccc2)NC(=O)[C@H]2CCCN2C(=O)[C@H](Cc2ccccc2)NC1=O | 1.3
CC(C)C[C@@H]1C(=O)N[C@@H](Cc2ccccc2)C(=O)N[C@@H](Cc2ccccc2)CC(=O)N[C@H](CC(C)C)C(=O)N[C@@H](Cc2ccccc2)CC(=O)N2CCC[C@H]2C(=O)N1C | 1.3
CCCN1CC(=O)N(C)[C@H](CC(C)C)C(=O)N(Cc2ccccc2)CC(=O)N2CCC[C@H]2C(=O)N[C@@H](CC(C)C)C(=O)N[C@@H](Cc2ccccc2)C(=O)N2CCC[C@H]2C1=O | 1.3
CC(C)C[C@@H]1NC(=O)[C@H]2CCCN2C(=O)[C@H](CC(C)C)N(C)C(=O)[C@H](CC(C)C)NC(=O)[C@H](C)NC(=O)[C@H](Cc2ccccc2)NC1=O | 2.4
CC(C)C[C@@H]1NC(=O)[C@@H]2CCCN2C(=O)CN(Cc2ccccc2)C(=O)[C@@H](CC(C)C)NC(=O)[C@H](C)NC(=O)[C@H](Cc2ccccc2)NC1=O | 1.5
CC(C)C[C@@H]1C(=O)N[C@H](CC(C)C)C(=O)N2CCC[C@H]2C(=O)N(C)[C@H](CC(C)C)C(=O)N[C@@H](Cc2ccccc2)C(=O)N2CCC[C@H]2C(=O)N[C@@H](C)C(=O)N1C | 2.3
CC(C)C[C@@H]1C(=O)N[C@@H](Cc2ccccc2)C(=O)N2CCC[C@H]2C(=O)N[C@@H](C)C(=O)N(C)[C@@H](CC(C)C)C(=O)N[C@@H](Cc2ccccc2)CC(=O)N2CCC[C@@H]2C(=O)N1C | 8.5
CC(C)C[C@H]1NC(=O)[C@@H](C)NC(=O)[C@H](Cc2ccccc2)NC(=O)[C@H](CC(C)C)N(C)C(=O)[C@@H]2CCCN2C(=O)C[C@H](Cc2ccccc2)NC1=O | 0.65
CC(C)C[C@@H]1NC(=O)[C@@H](C)N(C)C(=O)[C@H](Cc2ccccc2)NC(=O)CN(Cc2ccccc2)C(=O)[C@@H]2CCCN2C(=O)[C@@H](CC(C)C)NC1=O | 1.1
CC(C)C[C@H]1C(=O)N2CCC[C@H]2C(=O)N(C)[C@@H](CC(C)C)C(=O)N[C@@H](Cc2ccccc2)C(=O)N2CCC[C@H]2C(=O)N(C)[C@@H](C)C(=O)N(Cc2ccccc2)CC(=O)N1C | 3.8
CCCN1CC(=O)N(C)[C@H](CC(C)C)C(=O)N[C@H](CC(C)C)C(=O)N2CCC[C@@H]2C(=O)N(Cc2ccccc2)CC(=O)N[C@@H](Cc2ccccc2)C(=O)N2CCC[C@H]2C1=O | 6.2
CC(C)C[C@@H]1C(=O)N[C@@H](Cc2ccccc2)C(=O)N2CCC[C@H]2C(=O)N[C@@H](Cc2ccccc2)CC(=O)N(C)[C@@H](CC(C)C)C(=O)N[C@H](CC(C)C)C(=O)N2CCC[C@H]2C(=O)N1C | 3.2
CC(C)C[C@@H]1C(=O)N(C)[C@@H](CC(C)C)C(=O)N2CCC[C@H]2C(=O)N(Cc2ccccc2)CC(=O)N[C@@H](Cc2ccccc2)C(=O)N2CCC[C@H]2C(=O)N(C)[C@@H](C)C(=O)N1C | 1.5
CC(C)C[C@@H]1NC(=O)[C@@H](C)N(C)C(=O)[C@H]2CCCN2C(=O)[C@H](Cc2ccccc2)NC(=O)CN(Cc2ccccc2)C(=O)[C@H]2CCCN2C(=O)CN(Cc2ccccc2)C1=O | 1.9
CC(C)C[C@@H]1NC(=O)[C@@H](CC(C)C)N(C)C(=O)[C@H](C)NC(=O)[C@H](Cc2ccccc2)NC(=O)[C@H](CC(C)C)N(C)C(=O)[C@H]2CCCN2C1=O | 13
CC(C)C[C@@H]1NC(=O)[C@H](C)NC(=O)[C@H]2CCCN2C(=O)[C@H](Cc2ccccc2)NC(=O)[C@@H](CC(C)C)N(C)C(=O)[C@H]2CCCN2C(=O)[C@@H](CC(C)C)N(C)C1=O | 1

Extract of 2 entries:

| structure (SMILES) | PAMPA (10^-6 cm/s) |
|---|---|
| CC(C)C[C@@H]1NC(=O)[C@@H]2CCCN2C(=O)[C@@H](CC(C)C)NC(=O)[C@@H](CC(C)C)N(C)C(=O)C[C@H](Cc2ccccc2)NC(=O)[C@H]2CCCN2C(=O)[C@H](Cc2ccccc2)NC1=O | 1.9 |
| CC(C)C[C@@H]1C(=O)N[C@H](CC(C)C)C(=O)N2CCC[C@H]2C(=O)N(C)[C@H](CC(C)C)C(=O)N[C@@H](Cc2ccccc2)C(=O)N2CCC[C@H]2C(=O)N[C@@H](C)C(=O)N1C | 2.3 |

Values of Townsend et al. 2020, doi:10.26434/chemrxiv.13335941.v1, as listed in CycPeptMPDB.